US9034862B2, “Compositions and methods for the treatment of cancer” (priority 2011, dated 2015)

Key:
[1] = test system: A549, HT29, MRC5, and HeLa cells; settings: 5 μM, 3 h
[2] = D2O at 37° C.

cis-[Pt(NH3)2(phenanthridine)Cl]NO3 [phenanthriplatin]
cellular uptake of platinum [1]: taken up by cells more effectively than cisplatin or pyriplatin | equilibrium constant for aquation [2]: approximately 0.05 | time after which aquation reaction is complete (equilibrium with aqua analogue) [2]: 1 h | Mortality (Phase 1, 15 mg/kg IV): two animals from Group 2 (15 mg/kg) died immediately after dosing | Mortality (Phase 1, other groups (1.5, 0.15, 0.015 mg/kg IV)): No mortality | Mortality (Phase 2, 5.6 mg/kg IV, three animals dosed): One animal died within a few minutes after dosing | Mortality (Phase 2, 7.8 mg/kg IV, three animals dosed): Two animals died within a few minutes after dosing | Mortality (Phase 2, 10.8 mg/kg IV): one animal died immediately after dosing | Mortality (Phase 2, 15 mg/kg IV): one animal died from Group 9 (15 mg/kg) immediately after dosing | Mortality (Phase 2, 4, 2.9, 2.1 and 1.5 mg/kg IV, three animals dosed): no mortality was observed | change in body weight (all animals that survived past the first day): no significant change in body weight | maximum tolerated dose (MTD) (intravenous, Albino ICR mice): approximately 4 mg/kg

Like-named read-outs stand apart in the source and are kept apart here.
